Tests used:
D(4) dopamine receptor [1] = molecular target: T1, D(4) dopamine receptor (Homo sapiens, UniProt P21917); assay: Displacement of 3H-N-Methylspiperone from DRD4 in human HEK293T cells membrane assessed as inhibition constant incubated for 2 hrs by radioligand competition assay
D(2) dopamine receptor = D(2) dopamine receptor (Homo sapiens, UniProt P14416); assay: Displacement of 3H-N-Methylspiperone from DRD2 in human HEK293T cells membrane assessed as inhibition constant incubated for 2 hrs by radioligand competition assay
D(3) dopamine receptor = D(3) dopamine receptor (Homo sapiens, UniProt P35462); assay: Displacement of 3H-N-Methylspiperone from DRD3 in human HEK293T cells membrane assessed as inhibition constant incubated for 2 hrs by radioligand competition assay
[2] = Displacement of 3H-N-Methylspiperone from DRD4 F2.61V mutant in human HEK293T cells membrane assessed as inhibition constant incubated for 2 hrs by radioligand competition assay
[3] = Displacement of 3H-N-Methylspiperone from DRD4 L3.28F mutant in human HEK293T cells membrane assessed as inhibition constant incubated for 2 hrs by radioligand competition assay
[4] = Displacement of 3H-N-Methylspiperone from DRD4 F2.61V / L3.28F mutant in human HEK293T cells membrane assessed as inhibition constant incubated for 2 hrs by radioligand competition assay
[5] = Displacement of 3H-N-Methylspiperone from DRD2 V2.61F mutant in human HEK293T cells membrane assessed as inhibition constant incubated for 2 hrs by radioligand competition assay
[6] = Displacement of 3H-N-Methylspiperone from DRD2 F3.28L mutant in human HEK293T cells membrane assessed as inhibition constant incubated for 2 hrs by radioligand competition assay
[7] = Displacement of 3H-N-Methylspiperone from DRD2 V2.61F / F3.28L mutant in human HEK293T cells membrane assessed as inhibition constant incubated for 2 hrs by radioligand competition assay
D(4) dopamine receptor [8] = molecular target: T1, D(4) dopamine receptor; assay: Agonist activity at DRD4 expressed in human HEK293T cells assessed as cAMP accumulation incubated for 15 mins by split-luciferase-based biosensor analysis
[9] = Bios factor, ratio of agonist activity at DRD4-mediated arrestin signaling to agonist activity at DRD4-mediated G protein signaling in human HEK293T cells relative to quinpirole; details: condition cognitive impairment; condition parkinson disease; condition schizophrenia

Amino acid sequences for entries named in this document (tags omitted).
UniProt P21917, whole entry, looked up: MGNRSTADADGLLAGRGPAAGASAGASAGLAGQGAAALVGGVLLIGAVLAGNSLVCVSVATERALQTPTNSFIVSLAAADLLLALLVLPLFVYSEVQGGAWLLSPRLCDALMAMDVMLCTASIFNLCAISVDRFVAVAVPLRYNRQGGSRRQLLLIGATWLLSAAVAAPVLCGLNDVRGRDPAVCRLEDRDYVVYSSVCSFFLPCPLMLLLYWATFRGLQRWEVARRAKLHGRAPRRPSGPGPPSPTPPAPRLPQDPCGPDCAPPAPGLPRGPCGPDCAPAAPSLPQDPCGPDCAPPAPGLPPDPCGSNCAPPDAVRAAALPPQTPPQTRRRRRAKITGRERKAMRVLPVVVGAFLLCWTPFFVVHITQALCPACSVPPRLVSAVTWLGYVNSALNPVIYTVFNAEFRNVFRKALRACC
UniProt P14416, whole entry, looked up: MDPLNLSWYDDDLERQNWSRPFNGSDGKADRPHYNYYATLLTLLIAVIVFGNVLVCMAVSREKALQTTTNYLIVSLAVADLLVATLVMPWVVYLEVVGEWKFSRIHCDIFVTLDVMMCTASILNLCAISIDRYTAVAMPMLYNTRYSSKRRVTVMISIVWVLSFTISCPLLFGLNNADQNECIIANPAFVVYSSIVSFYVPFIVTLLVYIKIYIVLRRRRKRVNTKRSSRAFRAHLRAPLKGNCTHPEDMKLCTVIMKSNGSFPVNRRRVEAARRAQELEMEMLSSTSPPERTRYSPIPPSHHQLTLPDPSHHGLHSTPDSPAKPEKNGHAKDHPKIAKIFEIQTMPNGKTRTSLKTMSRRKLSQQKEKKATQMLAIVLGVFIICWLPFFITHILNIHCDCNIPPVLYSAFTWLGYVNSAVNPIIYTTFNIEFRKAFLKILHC
UniProt P35462, whole entry, looked up: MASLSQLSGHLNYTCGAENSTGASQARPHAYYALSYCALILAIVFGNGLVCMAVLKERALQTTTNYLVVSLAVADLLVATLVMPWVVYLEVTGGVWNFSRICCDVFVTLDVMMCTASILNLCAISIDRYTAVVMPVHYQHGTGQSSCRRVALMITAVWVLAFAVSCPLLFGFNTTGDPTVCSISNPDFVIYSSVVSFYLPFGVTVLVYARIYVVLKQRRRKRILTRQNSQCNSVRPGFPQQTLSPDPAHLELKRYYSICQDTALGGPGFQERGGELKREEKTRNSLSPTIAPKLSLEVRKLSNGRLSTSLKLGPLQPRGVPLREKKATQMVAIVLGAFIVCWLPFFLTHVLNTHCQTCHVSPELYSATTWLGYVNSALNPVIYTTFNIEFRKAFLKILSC

## O=c1cc(CNC[C@@H](O)c2ccccc2)[nH]c2ccc(F)cc12
D(4) dopamine receptor [1]
  Ki: > 10000 nM
D(2) dopamine receptor
  Ki: > 10000 nM
D(3) dopamine receptor
  Ki: > 10000 nM

## O=c1cc(CNCCCN2CCCC[C@H]2CO)[nH]c2ccc(F)cc12
D(4) dopamine receptor [1]
  Ki: > 10000 nM
D(2) dopamine receptor
  Ki: > 10000 nM
D(3) dopamine receptor
  Ki: > 10000 nM

## O=c1cc(CNCC2(O)CCCCC2)[nH]c2ccc(F)cc12
D(4) dopamine receptor [1]
  Ki: 7400 nM
D(2) dopamine receptor
  Ki: > 10000 nM
D(3) dopamine receptor
  Ki: > 10000 nM

## CCCn1cc(CNCc2cc(=O)c3cc(F)ccc3[nH]2)cn1
D(4) dopamine receptor [1]
  Ki: 1100 nM
D(2) dopamine receptor
  Ki: > 10000 nM
D(3) dopamine receptor
  Ki: > 10000 nM

## O=c1cc(CNCCCOc2cccnc2)[nH]c2ccc(F)cc12
D(2) dopamine receptor
  Ki: > 10000 nM
D(3) dopamine receptor
  Ki: > 10000 nM

## NC(=O)[C@H](Cc1ccccc1)NCc1cc(=O)c2cc(F)ccc2[nH]1
D(4) dopamine receptor [1]
  Ki: > 10000 nM
D(2) dopamine receptor
  Ki: > 10000 nM
D(3) dopamine receptor
  Ki: > 10000 nM

## O=c1cc(CNCCCc2nnc3ccccn23)[nH]c2ccc(F)cc12
D(4) dopamine receptor [1]
  Ki: 2000 nM
D(2) dopamine receptor
  Ki: > 10000 nM
D(3) dopamine receptor
  Ki: > 10000 nM

## c1ccc(-c2nc(CN3CCN(c4ncccn4)CC3)c[nH]2)cc1
[2]
  Ki: 332 nM
  pKi: 6.48
[3]
  Ki: 128 nM
  pKi: 6.89
[4]
  Ki: 280 nM
  pKi: 6.56
[5]
  Ki: 394 nM
  pKi: 6.41
[6]
  Ki: 1870 nM
  pKi: 5.74
[7]
  Ki: 579 nM
  pKi: 6.24

## Cc1ccc2[nH]c(CNCCSc3nc(C)n[nH]3)cc(=O)c2c1
D(4) dopamine receptor [1]
  Ki: 1200 nM
D(2) dopamine receptor
  Ki: > 10000 nM
D(3) dopamine receptor
  Ki: > 10000 nM

## Cc1n[nH]c(C)c1CCCNCc1cc(=O)c2cc(F)ccc2[nH]1
D(4) dopamine receptor [1]
  Ki: 800 nM
D(2) dopamine receptor
  Ki: > 10000 nM
D(3) dopamine receptor
  Ki: > 10000 nM

## NCCc1ccc(O)c(O)c1
[2]
  pKi: 6.58
[3]
  Ki: 172 nM
  pKi: 6.77
[4]
  pKi: 6.95
[7]
  Ki: 1290 nM
  pKi: 5.89

## C[C@@H](Cc1cncs1)NCc1cc(=O)c2cc(F)ccc2[nH]1
D(4) dopamine receptor [1]
  Ki: 5900 nM
D(2) dopamine receptor
  Ki: > 10000 nM
D(3) dopamine receptor
  Ki: > 10000 nM

## Cn1nccc1CNCCNc1cccc(Br)c1
D(4) dopamine receptor [1]
  Ki: 840 nM
[4]
  Ki: > 10000 nM
D(2) dopamine receptor
  Ki: > 10000 nM
D(3) dopamine receptor
  Ki: 1900 nM
D(4) dopamine receptor [8]
  EC50: 226 nM

## O=c1cc(CNC[C@H]2CCOC2)[nH]c2c(F)cccc12
D(4) dopamine receptor [1]
  Ki: 1920 nM
D(2) dopamine receptor
  Ki: > 10000 nM
D(3) dopamine receptor
  Ki: > 10000 nM

## O=c1cc(CNC[C@@H](CO)Cc2ccsc2)[nH]c2ccc(F)cc12
D(4) dopamine receptor [1]
  Ki: 1380 nM
[4]
  Ki: > 10000 nM
D(2) dopamine receptor
  Ki: > 10000 nM
D(3) dopamine receptor
  Ki: > 10000 nM
D(4) dopamine receptor [8]
  EC50: 213 nM

## Clc1ccc(N2CCN(Cc3c[nH]c4ncccc34)CC2)cc1
[2]
  Ki: 289 nM
  pKi: 6.55
[3]
  Ki: 78.1 nM
  pKi: 7.11
[4]
  Ki: 259 nM
  pKi: 6.59
D(2) dopamine receptor
  Ki: 9110 nM
[5]
  Ki: 339 nM
  pKi: 6.47
[6]
  Ki: 751 nM
  pKi: 6.13
[7]
  Ki: 154 nM
  pKi: 6.82

## O=c1cc(CN[C@@H]2COC3(CCCC3)C2)[nH]c2ccc(F)cc12
D(4) dopamine receptor [1]
  Ki: > 10000 nM
D(2) dopamine receptor
  Ki: > 10000 nM
D(3) dopamine receptor
  Ki: > 10000 nM

## Fc1ccc(N2CCN(CCC3OCCc4ccccc43)CC2)cc1 (stereo not drawn)
D(4) dopamine receptor [1]
  Ki: 11 nM
[2]
  Ki: 31.4 nM
  pKi: 7.5
[3]
  Ki: 326 nM
  pKi: 6.5
[4]
  Ki: 218 nM
  pKi: 6.68
D(2) dopamine receptor
  Ki: 1640 nM
[5]
  Ki: 525 nM
  pKi: 6.3
[6]
  Ki: 711 nM
  pKi: 6.15
[7]
  Ki: 124 nM
  pKi: 6.91

## Cc1csc(CCCNCc2cc(=O)c3cc(F)ccc3[nH]2)n1
D(4) dopamine receptor [1]
  Ki: 50 nM
[4]
  Ki: > 10000 nM
D(2) dopamine receptor
  Ki: > 10000 nM
D(3) dopamine receptor
  Ki: > 10000 nM
D(4) dopamine receptor [8]
  EC50: 33.4 nM
[9]
  Ratio: 20

## CC(C)C[C@H](CO)NCc1cc(=O)c2cc(F)ccc2[nH]1
D(4) dopamine receptor [1]
  Ki: > 10000 nM
D(2) dopamine receptor
  Ki: > 10000 nM
D(3) dopamine receptor
  Ki: > 10000 nM

## Cc1c(C2CCN(CCc3ccccc3)CC2)noc1-c1ccc(Cl)cc1
[2]
  Ki: 59.9 nM
  pKi: 7.26
[3]
  Ki: 292 nM
  pKi: 6.54
[4]
  Ki: 162 nM
  pKi: 6.81
[5]
  Ki: 381 nM
  pKi: 6.44
[6]
  Ki: 1430 nM
[7]
  Ki: 436 nM
  pKi: 6.37

## CN1CN(c2ccccc2)C2(CCN(CCCC(=O)c3ccc(F)cc3)CC2)C1=O
[3]
  Ki: 9.94 nM
  pKi: 8.02
[4]
  Ki: 2.67 nM
  pKi: 8.6
[5]
  Ki: 0.63 nM
  pKi: 9.2
[6]
  Ki: 0.58 nM
  pKi: 9.24
[7]
  Ki: 0.79 nM
  pKi: 9.18

## CN(CCCc1nccn1C)Cc1cc(O)c2cccc(Cl)c2n1
D(4) dopamine receptor [1]
  Ki: 6100 nM
D(2) dopamine receptor
  Ki: > 10000 nM
D(3) dopamine receptor
  Ki: > 10000 nM

## c1ccc(N2CCN(Cc3nc4ccccc4[nH]3)CC2)nc1
[9]
  Ratio: 1.3

## CCn1nc(C)c(CCNCc2cc(=O)c3cc(C)ccc3[nH]2)c1C
D(4) dopamine receptor [1]
  Ki: > 10000 nM
D(2) dopamine receptor
  Ki: > 10000 nM
D(3) dopamine receptor
  Ki: > 10000 nM

## Cc1ccc2[nH]c(CNCCc3nc(-c4cccnc4)n[nH]3)cc(=O)c2c1
D(4) dopamine receptor [1]
  Ki: > 10000 nM
D(2) dopamine receptor
  Ki: > 10000 nM
D(3) dopamine receptor
  Ki: > 10000 nM

## O=c1cc(CN[C@@H]2CCSC2)[nH]c2ccc(F)cc12
D(4) dopamine receptor [1]
  Ki: > 10000 nM
D(2) dopamine receptor
  Ki: > 10000 nM
D(3) dopamine receptor
  Ki: > 10000 nM

— ChEMBL document CHEMBL5715957, “D4 dopamine receptor high-resolution structures enable the discovery of selective agonists” (2017)
